Bioassay records: PubChem BioAssay, National Center for Advancing Translational Sciences (NCATS)
ALDH1A1 inh: blocks purified human ALDH1A1 activity; AID 1030; hit rate 7.3% among 220,000; Potency, µM (titrated, usually from 75.3 µM), without a hit: at the top dose activity, negative = inhibition, hits mostly inhibitors; Purified ALDH1A1, NADH fluorescence, propionaldehyde substrate; active = well fitted inhibition curve with a large enough effect, not every such curve was filed as active; inconclusive = small, poorly fitted or top-dose-only effect, or another doubt; inactive = no such curve, though single readings can be large or run the other way;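 also: potency is read from the fitted curve at half-maximal effect; plate controls were no enzyme wells and a reference inhibitor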
LMNA splice mod: changes lamin A minigene splicing in HeLa cells. Potency, µM (highest dose often 46.1 µM), for inactives: at the top dose ratio change, negative = inhibition, most hits filed as inhibitors. HeLa LMNA splicing GFP/RFP minigene ratio, 48 h. AID 1487. hit rate 0.01% among 200,000; active = well fitted inhibition curve with a large enough effect in the signal ratio, with a control signal flat, not every such curve was filed as active; inconclusive = small, poorly fitted or top-dose-only effect, or effect the other way, or a change in a side signal; the % refers to the signal ratio; also: potency is read from the fitted curve at half-maximal effect; % is scaled to controls: 0 for no effect and ±100 for the full control effect
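Read-out is the ratio of GFP to DsRed2 object intensity, acquired by 488 nm laser-scanning cytometry on HeLa lamin A-EGFP minigene reporter cells. Compound incubation 48 hrs at 37 °C in Opti-MEM with 2% FBS; DMSO 0.5% final.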
miR-21 reporter: raises the signal of a miR-21 reporter; HeLa miR-21 FLuc reporter, luciferase, 48 h; Potency, µM (top dose mostly 38.3 µM), for inactives: at the highest dose reporter change, positive = more light; AID 2288; 340,000 tested, under 10 active; active = well fitted rising curve with a large enough effect; inconclusive = small, poorly fitted or top-dose-only effect; inactive = no such curve, though single readings can be large or run the other way;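 note: % of control where 0% means no effect; miR-21 action dims this reporter so a rising signal means less miR-21 action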
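HeLa cells stably expressing CMV-driven firefly luciferase with a downstream miR-21 binding sequence, endogenously expressing miR-21, were treated with titrations (up to about 40uM final) for 48 hours at 37 degree Celsius. Luciferase luminescence was read after lysis.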
KDM4E inh: inhibitors of human JMJD2E histone demethylase; hit rate 1.6% among 230,000; JMJD2E catalytic domain, FDH-coupled NADH fluorescence (FDH is formaldehyde dehydrogenase); Potency, µM (doses to about 57.1 µM), for inactives: top-dose activity change, negative = inhibition, usual class: inhibitors; AID 2147; B2RXH2; active = well fitted inhibition curve with a large enough effect, not every such curve was filed as active; inconclusive = small, poorly fitted or top-dose-only effect, or another doubt; inactive = no such curve, though single readings can be large or run the other way;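 also: potency is read from the fitted curve at half-maximal effect; 0% = wells with enzyme and -100% = buffer wells without enzyme; nearly all actives have a fitted effect of over 50% in size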
G9a block: inhibitors of human histone lysine methyltransferase G9a. Q96KQ7. G9a H3K9 monomethylation, AlphaScreen, 2 h. Potency, µM (top dose mostly 102 µM), for the others: top-dose activity, negative = inhibition, most hits filed as inhibitors. hit rate 8.8% among 350,000. AID 504332; also: potency is read from the fitted curve at half-maximal effect; % is scaled to controls: 0 for no effect and ±100 for the full control effect; nearly all actives have a fitted effect of over 75% in size
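AlphaScreen read-out: biotin-H3K9 peptide (500 nM) methylation by 20 nM enzyme with 20 uM SAM, 2 h at room temperature after 15 min compound preincubation; anti-monomethyl H3K9 antibody plus donor/acceptor beads, 10 min dark.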
Sfp PPTase inh: inhibitors of Bacillus subtilis Sfp phosphopantetheinyl transferase. Q9F4F7. Biochemical Sfp PPTase activity, qHTS. Potency, µM, inactives show max response, negative = inhibition, most hits filed as inhibitors. 3.5% of 310,000 active. AID 1490; active = well fitted inhibition curve with a large enough effect; inconclusive = small, poorly fitted or top-dose-only effect, or another doubt; inactive = no such curve, though single readings can be large or run the other way;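 also: the enzyme is Sfp with the accession as filed and its product quenches rhodamine fluorescence; potency is read from the fitted curve at half-maximal effect; 0% = enzyme reaction without inhibitor and -100% = no enzyme wells; top concentration of the series not given in the record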
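Fluorescence-quenching assay: 15 nM Sfp-PPTase preincubated 15 min at room temperature with compound, then 5 uM rhodamine-CoA and 12.5 uM BHQ-2-labelled YbbR peptide added. Fluorescence (ex 525/em 598 nm) read at start and after 30 min; difference gives rate.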
The depositor's hits bear a star; ? = inconclusive; / = no result given; [ ] = remark or other dose. Shown are actives, neighbours in structure and some others; about 13% of the full set was active somewhere. Unless noted, calls follow the shape of the dose curve; as a rule, active = well fitted curve in the direction sought with a large enough effect; inconclusive = small, poorly fitted or top-dose-only effect, or another doubt; inactive = no such curve, though single readings can be large; an effect the other way counts as inactive or inconclusive.

no.	Compound	ALDH1A1 inh	LMNA splice mod	miR-21 reporter	KDM4E inh	G9a block	Sfp PPTase inh
1	O=C(CCC(=O)OCC(=O)c1ccc(Cl)cc1)Nc1ccc(Oc2ccccc2)cc1	/	/	-10%	/	-47%[59 µM]	/
2	CCN(CC)CC(=O)Nc1ccccc1SCC(=O)Nc1ccsc1C(=O)OC	-9%	/	0%	3%	-19%	-26%
3	COC(=O)c1sccc1NC(=O)CSc1ccccc1NS(=O)(=O)c1ccc(Cl)cc1	13µM*	-5%	15%	5%	-42%	14%
4	COC(=O)c1sccc1NC(=O)CSc1ccccc1NS(=O)(=O)c1ccccc1Cl	7.1µM*	-12%	22%	-20%	-6%[59 µM]	9%
5	Cc1ccccc1/C=N/Nc1nc2ccccc2c(=O)n1O	/	/	-58%	?	14µM*	32µM*
6	Cc1ccc(-c2nc3ccccc3c(=O)n2O)cc1	/	/	-8%	/	32µM*	-14%
7	COc1ccc(CC(=O)Nn2c(-c3ccccc3)nc3ccccc3c2=O)cc1	1µM*	?	0%	1%	?	9%
8	COc1ccccc1-c1nc2ccccc2c(=O)n1O	/	/	-2%	/	35µM*	-19%
9	COc1ccc(-c2nc3ccccc3c(=O)n2NC(=O)Cc2ccccc2)cc1	?	3%	-8%	2%	-16%	-15%
10	CCOc1ccc(N2CC(c3nc4ccccc4n3Cc3cccc(Cl)c3)CC2=O)cc1 (stereo not given)	/	/	11%	/	?	/
11	COc1ccc(C(=O)NCN2CCN(c3ccccc3)CC2)cc1OC	/	/	/	/	0%[12.7 µM]	/
12	Cc1ccc(C(CNS(=O)(=O)c2cc(F)ccc2F)N2CCN(C)CC2)cc1 (stereo not given)	/	/	/	/	-3%[12.7 µM]	/
13	Cc1nn2cc(-c3ccc(Cl)cc3)cnc2c1Cl	-9%	6%[46 µM]	-51%	1%	5%	5%
14	Cc1ccc(-c2nc3ccccc3c(=O)n2NC(=O)COc2ccccc2)cc1	?	-4%	1%	5%	6%[59 µM]	11%
15	Cc1ccc(-c2nc3ccccc3c(=O)n2NC(=S)N(C)C)cc1	?	-3%	-2%	-2%	4µM*	22µM*
16	COc1cccc(CNC(=O)c2c(C)nn(-c3cccc(C)c3)c2-n2cccc2)c1	/	/	1%	/	9%[59 µM]	/
17	Cc1cc(Br)ccc1NC(=O)c1cc2c(s1)-c1ccccc1SC2	/	/	17%	/	19%[59 µM]	/
18	Cc1ccc2cc(C(c3nnnn3C3CCCC3)N3CCN(c4ccc(F)cc4)CC3)c(=O)[nH]c2c1 (stereo not given)	11µM*	-10%	-2%	?	11µM*	35µM*
19	Cc1cccc2cc(C(c3nnnn3C3CCCC3)N3CCOCC3)c(=O)[nH]c12 (stereo not given)	?	16%	-2%	?	-32%	-1%
20	Cc1cc(C)c2cc(C(c3nnnn3C3CCCC3)N3CCOCC3)c(=O)[nH]c2c1 (stereo not given)	14µM*	13%	-1%	?	-28%[59 µM]	56µM*
21	O=S(=O)(c1ccc(F)cc1)N1CN(Cc2ccco2)c2nc3ccccc3nc21	?	?	-18%	?	11µM*	56µM*
22	COc1ccc(CN2CN(S(=O)(=O)c3ccccc3)c3nc4ccccc4nc32)cc1	/	/	-46%	?	-23%	4%
23	Cc1ccc(S(=O)(=O)N2CN(Cc3ccco3)c3nc4ccccc4nc32)cc1	?	?	-16%	?	32µM*	-29%
24	Cc1ccc(S(=O)(=O)N2CN(Cc3ccco3)c3nc4ccccc4nc32)cc1C	?	?	-3%	4%	32µM*	40µM*
25	COc1ccc(S(=O)(=O)N2CN(Cc3ccco3)c3nc4ccccc4nc32)cc1	?	?	-3%	?	?	56µM*
26	COc1cccc(CNC(=O)CN(C)S(=O)(=O)c2ccc3c(c2)n(C)c(=O)c(=O)n3C)c1	/	/	0%	/	18%	13%
27	CCOc1ccccc1CN1CCc2nc(N3CCN(C)CC3)ncc2C1	/	?	-2%	/	-3%[12.7 µM]	/
28	Cc1cc(C)n(CC(=O)N/N=C/c2cc(Br)cc([N+](=O)[O-])c2O)n1	20µM*	/	3%	1%	?	23%
29	COc1cc(/C=N/NC(=O)c2cccc(NC(=O)c3ccccc3C)c2)ccc1O	/	/	0%	/	14%	8%
30	Cc1cc([N+](=O)[O-])nn1CC(=O)N/N=C/c1ccccc1F	/	/	1%	-4%	/	8%
31	COc1ccc(NC(=S)NNC(=O)Cn2nc([N+](=O)[O-])cc2C)cc1	-4%	6%	4%	4%	-51%[59 µM]	-16%
32	Cc1ccccc1C(=O)Nc1cccc(C(=O)N/N=C/c2cc(Cl)cc([N+](=O)[O-])c2O)c1	1.3µM*	/	20%	-3%	32µM*	15%
33	Cc1cc([N+](=O)[O-])nn1CC(=O)N/N=C/c1ccccc1O	/	/	-1%	7.9µM*	51%	24%
34	Cc1cc([N+](=O)[O-])nn1CC(=O)NNC(=S)Nc1ccc([N+](=O)[O-])cc1	22µM*	9%	-2%	5%	?	7%
35	CC(=O)NCCNc1nc(-c2ccc(N(C)C)cc2)nc2ccccc12	?	?	/	?	/	-2%
36	CCOc1cc(/C=N/NC(=O)Cn2nc([N+](=O)[O-])cc2C)ccc1OCc1ccc(F)cc1	4%	?	-2%	1%	-2%[0.0925 µM]	45µM*
37	O=C(N/N=C/c1cc(Cl)cc([N+](=O)[O-])c1O)C1CC1	?	?	-2%	?	?	24%
38	O=C(Cn1nc2ccccc2n1)N/N=C/c1cc(Cl)cc([N+](=O)[O-])c1O	14µM*	?	-2%	?	40µM*	25%
39	COc1ccc(-c2cnc(C)o2)cc1S(=O)(=O)Nc1ccc(F)cc1F	/	6%[46 µM]	-10%	/	3%[59 µM]	/
40	COc1cc(OC)c(NC(=O)/C=C/C(=O)O)cc1Cl	-1%	-18%[46 µM]	4%	?	/	-24%
41	COc1ccc2c(c1OC)C(=O)OC2CC(=O)c1ccc(O)c(O)c1 (stereo not given)	12%	13%	-2%	14µM*	40µM*	-16%
42	COc1ccc2c(c1OC)C(=O)OC2CC(=O)c1ccc(O)cc1 (stereo not given)	28µM*	4%	-5%	-1%	4%[59 µM]	14%
43	COc1ccc2c(c1OC)C(=O)OC2CC(=O)c1ccc(N(C)C)cc1 (stereo not given)	-10%	1%	0%	-1%	9%[59 µM]	13%
44	O=C(CSc1nnc2c(n1)[nH]c1ccccc12)Nc1cccc(S(=O)(=O)N2CCOCC2)c1	/	/	-2%	-7%	?	79µM*
45	Cc1cc2nnc(SCC(=O)Nc3cccc(S(=O)(=O)N4CCOCC4)c3)n2c2ccccc12	?	-14%	-3%	-8%	50µM*	13%
46	Cc1cc(=O)[nH]c(SCC(=O)Nc2cccc(S(=O)(=O)N3CCOCC3)c2)n1	/	/	/	/	-13%[59 µM]	/

Full records as entered above:
Cc1cc([N+](=O)[O-])nn1CC(=O)NNC(=S)Nc1ccc([N+](=O)[O-])cc1 reads ALDH1A1 inh: 22µM*; LMNA splice mod: 9%; miR-21 reporter: -2%; KDM4E inh: 5%; G9a block: ?; Sfp PPTase inh: 7%
COc1cccc(CNC(=O)CN(C)S(=O)(=O)c2ccc3c(c2)n(C)c(=O)c(=O)n3C)c1 reads ALDH1A1 inh: /; LMNA splice mod: /; miR-21 reporter: 0%; KDM4E inh: /; G9a block: 18%; Sfp PPTase inh: 13%
